The list shows a part of the results, in another mix than the full data. Calls of active or inactive are those of the source.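 Rule for the calls: active = compounds whose fitted half-maximal concentration for changing the GFP signal is at or below a set limit; inactive = the rest.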
Assay: TOR pathway RPL19A-GFP modulators, concentration series – cell-based, S. cerevisiae, flow cytometry, MLPCN hits, dose response (AID 2740);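 note: background is signal of the same compound in parental non-GFP s288c yeast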
Settings: S. cerevisiae RPL19A-GFP strain, 3 h, at 33 µM (top of the series)

## C[N+]1=C2C=CC=CC=C2SC12C([N+](=O)[O-])=CC([N+](=O)[O-])=C[C-]2[N+](=O)[O-] (stereo unspecified)
  GFP fluorescence, lower = active: inactive: 46.6%

— PubChem BioAssay AID2740 (NMMLSC, 2010)
